The target of this assay is JAK3 enzyme (Homo sapiens (Human), UniProt P52333). Briefly: JAK Caliper Enzyme Assay at 4 μM or 1 mM ATP. It counts as biochemical. On the procedure:
JAK Caliper Enzyme Assay at […] or 1 mM ATP
Test article was solubilized in dimethyl sulfoxide (DMSO) to a stock concentration of 30 mM. An 11-point half log dilution series was created in DMSO with a top concentration of 600 μM. […] The compound plates were diluted 1 to 60 resulting in a top final assay compound concentration of 10 μM and a 2% DMSO concentration.
Test article and assay controls were added to a 384-well plate. Reaction mixtures contained 20 mM HEPES, pH 7.4, 10 mM magnesium chloride, 0.01% bovine serum albumin (BSA), 0.0005% Tween […] or 1 mM ATP and […] peptide substrate. […] The assays were initiated by the addition 1 nM JAK3 enzyme and were incubated at room temperature 75 minutes for JAK3. Enzyme concentrations and incubation times were optimized for each new enzyme preps and were modified slightly over time to ensure 20%-30% phosphorylation. The assays were stopped with a final concentration of 10 mM EDTA, 0.1% Coating Reagent and 100 mM HEPES, pH=7.4. The assay plates were placed on a Caliper Life Science Lab Chip 3000 (LC3000) instrument, and each well was sampled using appropriate separation conditions to measure the unphosphorylated and phosphorylated peptide.

Amino acid sequences for entries named in this document (tags omitted).
UniProt P52333, whole entry, species assumed: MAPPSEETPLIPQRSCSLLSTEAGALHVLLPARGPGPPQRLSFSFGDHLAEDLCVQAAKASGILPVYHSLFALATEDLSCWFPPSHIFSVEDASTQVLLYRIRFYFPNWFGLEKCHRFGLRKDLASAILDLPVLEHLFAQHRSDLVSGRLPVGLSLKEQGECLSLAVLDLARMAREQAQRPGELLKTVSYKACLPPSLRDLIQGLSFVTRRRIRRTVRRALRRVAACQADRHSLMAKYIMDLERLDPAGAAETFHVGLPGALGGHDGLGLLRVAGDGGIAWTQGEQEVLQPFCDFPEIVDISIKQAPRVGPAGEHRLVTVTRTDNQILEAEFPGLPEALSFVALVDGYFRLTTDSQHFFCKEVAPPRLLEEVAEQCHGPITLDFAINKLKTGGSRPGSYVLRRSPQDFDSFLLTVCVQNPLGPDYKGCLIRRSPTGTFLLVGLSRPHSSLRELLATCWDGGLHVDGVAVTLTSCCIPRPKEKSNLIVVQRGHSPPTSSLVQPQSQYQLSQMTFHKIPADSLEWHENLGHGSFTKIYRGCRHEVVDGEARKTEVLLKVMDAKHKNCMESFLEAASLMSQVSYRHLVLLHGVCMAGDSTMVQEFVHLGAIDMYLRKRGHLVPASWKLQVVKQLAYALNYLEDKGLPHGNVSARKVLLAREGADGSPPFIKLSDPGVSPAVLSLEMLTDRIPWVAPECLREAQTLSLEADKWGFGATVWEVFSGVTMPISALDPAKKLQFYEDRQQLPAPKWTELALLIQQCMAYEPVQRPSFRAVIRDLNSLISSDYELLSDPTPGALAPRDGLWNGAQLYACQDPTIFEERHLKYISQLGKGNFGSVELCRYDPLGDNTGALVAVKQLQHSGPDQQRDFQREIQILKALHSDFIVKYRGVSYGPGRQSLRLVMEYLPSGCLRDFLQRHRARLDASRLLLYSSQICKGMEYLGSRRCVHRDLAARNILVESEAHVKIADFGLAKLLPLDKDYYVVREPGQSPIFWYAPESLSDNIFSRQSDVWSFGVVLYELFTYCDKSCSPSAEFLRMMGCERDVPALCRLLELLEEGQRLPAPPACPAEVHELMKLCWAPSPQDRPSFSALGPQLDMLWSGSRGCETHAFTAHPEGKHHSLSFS

The mark [1] stands for this setting: read-out: JAK3 (4 μM ATP) IC50, 4 μM ATP.
Where [2] appears, read: read-out: JAK3 (1 mM ATP) IC50, 1 mM ATP.

Like-named read-outs stand apart in the source and are kept apart here. Where only a bound is given, the exact number is not on record here.

For orientation: IC50 means the midpoint of a concentration-inhibition curve.

In the case of `C=CC(=O)N1C[C@H](Nc2ncnc3[nH]ccc23)CC[C@@H]1CO` (single isomer, unassigned) [Example 7], the IC50 reads like this: under setting [1], 0.3 nM; under setting [2], 45.3 nM.

Take `C=CC(=O)N1C[C@@H](C)C[C@@H](Nc2ncnc3[nH]ccc23)C1` (single isomer, unassigned) [Example 14]: the IC50 worked out at 0.5 nM under setting [1] and 60.5 nM under setting [2].

Consider `C=CC(=O)N1CCC(Nc2cnc3[nH]cc(C(=O)NC(C)(C)C)c3n2)C[C@@H]1C` (mixture of isomers) [Example 340], for which the concentration for half-maximal inhibition (IC50) under setting [1] turned out to be 21.1 nM.

As to `C=CC(=O)N1CCC(Oc2cnc3[nH]cc(-c4c(C)nn(C)c4C)c3n2)CC1` [Example 221, 1-(4-{[7-(1,3,5-trimethyl-1H-pyrazol-4-yl)-5H-pyrrolo[2,3-b]pyrazin-2-yl]oxy}piperidin-1-yl)prop-2-en-1-one], the IC50 under setting [1] came to 15.5 nM.

`CC(C)=C(C#N)C(=O)N1CCCC(Nc2ncnc3[nH]ccc23)C1` (centres unmarked) [Example 96, 3-methyl-2-{[3-(7H-pyrrolo[2,3-d]pyrimidin-4-ylamino)piperidin-1-yl]carbonyl}but-2-enenitrile]: under setting [2], the half-maximal inhibitory concentration (IC50) is above 10000 nM.

For the molecule `C=CC(=O)N1CCC[C@@H](Nc2ncnc3[nH]cc(-c4ccc(OCC)nc4)c23)C1` [Example 33, 1-[(3R)-3-{[5-(6-ethoxypyridin-3-yl)-7H-pyrrolo[2,3-d]pyrimidin-4-yl]amino}piperidin-1-yl]prop-2-en-1-one], the IC50 under setting [1] came out at 49.5 nM.

For the molecule `C=CC(=O)N1CCC(Oc2cnc3[nH]cc(-c4cnc(N5CCOCC5)nc4)c3n2)CC1` [Example 223, 1-[4-({7-[2-(morpholin-4-yl)pyrimidin-5-yl]-5H-pyrrolo[2,3-b]pyrazin-2-yl}oxy)piperidin-1-yl]prop-2-en-1-one], under setting [1], the half-maximal inhibitory concentration (IC50) turned out to be 30 nM.

On to `C=CC(=O)N1C[C@@H](C)N(c2cnc3[nH]cc(C(=O)NC(C)C)c3n2)C[C@@H]1C` [Example 327, 2-[(2R,5S)-4-acryloyl-2,5-dimethylpiperazin-1-yl]-N-(propan-2-yl)-5H-pyrrolo[2,3-b]pyrazine-7-carboxamide], for which the IC50 is, setting by setting: under setting [1], 6 nM; under setting [2], 569 nM.

Turning to `C=CC(=O)N1CCN(c2cnc3[nH]ccc3n2)CC1` [Example 172, 1-[4-(5H-pyrrolo[2,3-b]pyrazin-2-yl)piperazin-1-yl]prop-2-en-1-one], under setting [1], the IC50 stood at 25.5 nM.

Turning to `C=CC(=O)N1CCC[C@H]1CNc1cnc2[nH]cc(C(=O)NC(C)C)c2n1` [Example 177, 2-({[(2S)-1-acryloylpyrrolidin-2-yl]methyl}amino)-N-(propan-2-yl)-5H-pyrrolo[2,3-b]pyrazine-7-carboxamide], the half-inhibitory concentration (IC50) reads like this: under setting [1], 0.7 nM; under setting [2], 44.4 nM.

With `C=CC(=O)N1CC2CCC1CN2c1cnc2[nH]cc(C(=O)NC(C)C)c2n1` (centres unmarked) [Example 308, 2-(5-acryloyl-2,5-diazabicyclo[2.2.2]oct-2-yl)-N-(propan-2-yl)-5H-pyrrolo[2,3-b]pyrazine-7-carboxamide], the IC50 was found to be 5.2 nM under setting [1] and 431 nM under setting [2].

Consider `C=CC(=O)N1C[C@@H]2CC[C@H]1CN2c1cnc2[nH]cc(C(=O)NC(C)C)c2n1` [Example 304, 2-[(1S,4S)-5-acryloyl-2,5-diazabicyclo[2.2.2]oct-2-yl]-N-(propan-2-yl)-5H-pyrrolo[2,3-b]pyrazine-7-carboxamide], for which the half-inhibitory concentration (IC50) came to 7.1 nM under setting [1] and 624 nM under setting [2].

For the molecule `C=CC(=O)N[C@@H]1CCN(c2cnc3[nH]cc(C(=O)NC(C)C)c3n2)C1` [Example 181, 2-[(3R)-3-(acryloylamino)pyrrolidin-1-yl]-N-(propan-2-yl)-5H-pyrrolo[2,3-b]pyrazine-7-carboxamide], the IC50 under setting [1] is 10.3 nM.

Consider `C=CC(=O)N1C[C@H](Nc2ncnc3[nH]ccc23)CC[C@@H]1CO` [Example 161, 1-[(2R,5R)-2-(Hydroxymethyl)-5-(7H-pyrrolo[2,3-d]pyrimidin-4-ylamino)piperidin-1-y]prop-2-en-1-one], for which the half-inhibitory concentration (IC50) by setting is: under setting [1], 0.3 nM; under setting [2], 45.3 nM.

For the molecule `C=CC(=O)N1C[C@@H](C)N(c2cnc3[nH]cc(C(=O)NC(C)C)c3n2)C[C@H]1C` [Example 326, 2-[(2R,5R)-4-acryloyl-2,5-dimethylpiperazin-1-yl]-N-(propan-2-yl)-5H-pyrrolo[2,3-b]pyrazine-7-carboxamide], the IC50 stood at 4.9 nM under setting [1] and 506 nM under setting [2].

Take `O=C(/C=C/C(F)F)N1CC[C@@H]2CCN(c3ncnc4[nH]ccc34)[C@@H]2C1` [Example 80, (2E)-4,4-difluoro-1-[(3aS,7aS)-1-(7H-pyrrolo[2,3-d]pyrimidin-4-yl)octahydro-6H-pyrrolo[2,3-c]pyrdin-6-yl]but-2-en-1-one]: the IC50 under setting [1] came to 22.7 nM.

`C=CC(=O)N1C[C@H](C)N(c2cnc3[nH]cc(C(=O)NC(C)C)c3n2)C[C@H]1C` [Example 298, 2-[(2S,5R)-4-acryloyl-2,5-dimethylpiperazin-1-yl]-N-(propan-2-yl)-5H-pyrrolo[2,3-b]pyrazine-7-carboxamide]: the IC50 under setting [1] came to 4.6 nM and the IC50 under setting [2] is 728 nM.

For `C=CC(=O)NC1CCN(c2cnc3[nH]cc(C(=O)NC(C)C)c3n2)C1` (centres unmarked) [Example 195, 2-[3-(acryloylamino)pyrrolidin-1-yl]-N-(propan-2-yl)-5H-pyrrolo[2,3-b]pyrazine-7-carboxamide], under setting [1], the IC50 came to 12.1 nM.

Take `C=CC(=O)N1C[C@H](C)C[C@H](Nc2ncnc3[nH]ccc23)C1` [Example 128, 1-[(3R,5S)-3-Methyl-5-(7H-pyrrolo[2,3-d]pyrimidin-4-ylamino)piperidin-1-yl]prop-2-en-1-one]: the half-inhibitory concentration (IC50) runs as follows: under setting [1], 444 nM; under setting [2], above 10000 nM.

Regarding `C=CC(=O)N1C[C@@H](C)C[C@H](Nc2ncnc3[nH]ccc23)C1` [Example 75, 1-((3S,5S)-3-((7H-Pyrrolo[2,3-d]pyrimidin-4-yl)amino)-5-methylpiperidin-1-yl)prop-2-en-1-one], the half-maximal inhibitory concentration (IC50) under setting [1] worked out at 716 nM and the IC50 under setting [2] is above 10000 nM.

Turning to `C=CC(=O)N1CC2(CCN(c3cnc4[nH]cc(C(=O)NC(C)C)c4n3)C2)C1` [Example 296, 2-(2-acryloyl-2,6-diazaspiro[3.4]oct-6-yl)-N-(propan-2-yl)-5H-pyrrolo[2,3-b]pyrazine-7-carboxamide], the IC50 under setting [1] was 56.6 nM.

On to `C=CC(=O)N(C)[C@@H]1CCN(c2cnc3[nH]cc(C(=O)NC(C)C)c3n2)C1` [Example 190, 2-{(3R)-3-[acryloyl(methyl)amino]pyrrolidin-1-yl}-N-(propan-2-yl)-5H-pyrrolo[2,3-b]pyrazine-7-carboxamide], for which the IC50 under setting [1] is 13.9 nM.

Regarding `C=CC(=O)N1CC[C@H](C)[C@@H](Nc2ncnc3[nH]ccc23)C1` (racemic) [Example 50, 1-[(3R,4S)-4-methyl-3-(7H-pyrrolo[2,3-d]pyrimidin-4-ylamino)piperidin-1-yl]prop-2-en-1-one], the IC50 reads like this: under setting [1], 2 nM; under setting [2], 116 nM.

With `C=C(CN(C)C)C(=O)N1CCC[C@@H](Nc2ncnc3[nH]ccc23)C1` [Example 92, 2-[(dimethylamino)methyl]-1-[(3R)-3-(7H-pyrrolo[2,3-d]pyrimidin-4-ylamino)piperidin-1-yl]prop-2-en-1-one], under setting [2], the IC50 is above 10000 nM.

With `C=CC(=O)N1CC[C@H](C)[C@@H](Nc2ncnc3[nH]ccc23)C1` [Example 11, 1-((3R,4S)-3-((7H-pyrrolo[2,3-d]pyrimidin-4-yl)amino)-4-methylpiperidin-1-yl)prop-2-en-1-one], the IC50 stood at 0.4 nM under setting [1] and 55.9 nM under setting [2].

As to `C=CC(=O)N1CC[C@@H]2CCN(c3nc(N)nc4[nH]ccc34)[C@@H]2C1` [Example 73, 1-[(3aS,7aS)-1-(2-Amino-7H-pyrrolo[2,3-d]pyrimidin-4-yl)octahydro-6H-pyrrolo[2,3-c]pyridin-6-yl]prop-2-en-1-one], the 50% inhibitory concentration (IC50) under setting [1] is 48.4 nM.

As for `O=C(/C=C/C(F)(F)F)N1CC[C@@H]2CCN(c3ncnc4[nH]ccc34)[C@@H]2C1` [Example 81, (2E)-4,4,4-trifluoro-1-[(3aS,7aS)-1-(7H-pyrrolo[2,3-d]pyrimidin-4-yl)octahydro-6H-pyrrolo[2,3-c]pyridin-6-yl]but-2-en-1-one], under setting [1], the IC50 worked out at 35.3 nM.

Regarding `C=CC(=O)N1CC[C@@H]2CCN(c3ncnc4[nH]ccc34)[C@@H]2C1` (single isomer, unassigned) [Example 8], the IC50 under setting [1] was below 0.4 nM and the IC50 under setting [2] was 47.7 nM.

As for `C=CC(=O)N1C[C@H](Nc2ncnc3[nH]ccc23)CCC1(C)C` (single isomer, unassigned) [Example 61], the IC50 reads like this: under setting [1], 7.5 nM; under setting [2], 609 nM.

Source of the values: patent publication US20250134869A1, “Pyrrolo[2,3-d]pyrimidinyl, Pyrrolo[2,3-b]pyrazinyl and Pyrrolo[2,3-d]pyridinyl Acryla-mides” (Pfizer Inc, priority 2021, published 2025).
